From US10465009B2, “BCMA antigen binding proteins” (Amgen Inc., priority 2012, dated 2019)

Tested on: H929 cells
Experiment: Internalization assay (ArrayScan spot count) in H929 cells
Assay type: cell-based, human
Details: 10 μg/mL, 0-2 hours at 37° C.
Description: H929 myeloma tumor cells were cultured in growth medium (RPMI 1640, 10% FBS, MEM non-essential Amino Acids, HEPES, beta-mercaptoethanol, Pen/Strep, L-glutamine, sodium pyruvate, gentamicin). The H929 cells were collected into two 3-ml FACS tubes at approximately 500,000 cells per tube and washed once with assay medium (PBS containing 2% FBS). […] After incubation at 4° C. for 30 minutes, the cells were washed once with assay medium. A cocktail of anti-human IgG, Alexa 488 (Molecular Probes Inc., Eugene, Oreg. Catalog# A11013 at a 1:1,000 dilution in assay medium) and Hoechst 33342 (Molecular Probes Inc., Eugene, Oreg. Catalog# H21492 at a 1:2000 dilution in assay medium) was added to the cells. […] The internalization rate was quantified on an ArrayScan V^TI HCS reader (version 6, Cellomics, Thermo Fisher Scientific, Pittsburgh, Pa.) with BioApplication “Spot Detector” algorithm employing a 40× objective. At least 200 cells were counted in each well.
The output parameter algorithm of ArrayScan was “SpotCountPerObjectCh2.” The results were reported as total spot count per 200 cells. […] The spot counts were expressed as the mean±standard error of the mean (SEM) for duplicate measurements (n=2). […] The half-life for internalization was calculated using one-phase exponential association from GraphPad™ Prism. […]

B1: 2A1: parental fully human anti-huBCMA mAb, Vh SEQ ID NO:214, Vl SEQ ID NO:248; heavy chain SEQ ID NO:287, light chain 288 (antibody)
heavy: EVQLVESGGGLVKPGRSLRLSCTASGFTFGDYALSWFRQAPGKGLEWVGVSRSKAYGGTTDYAASVKGRFTISRDDSKSFAYLQMNSLKTEDTAVYYCCSSGYSSGWTPFDYWGQGTLVTVSSASTKGPSVFPLAPSSKSTSGGTAALGCLVKDYFPEPVTVSWNSGALTSGVHTFPAVLQSSGLYSLSSVVTVPSSSLGTQTYICNVNHKPSNTKVDKKV[omitted - human IgG1 Fc]
light: QSVLTQPPSASGTPGQRVTISCSGSSSNIGSNTVNWYQQLPGTAPKLLIFNYHQRPSGVPDRFSGSKSGSSASLAISGLQSEDEADYYCAAWDDSLNGWVFGGGTELTVLGQPKAAPSVTLFPPSSEELQANKATLVCLISDFYPGAVTVAWKADSSPVKAGVETTTPSKQSNNKYAASSYLSLTPEQWKSHRSYSCQVTHEGSTVEKTVAPTECS
internalization following binding to BCMA on H929 cells: readily internalized
